2 compounds from ChEMBL document CHEMBL6103538, “Carbonic anhydrases: Moiety appended derivatives, medicinal and pharmacological implications” (Bioorg Med Chem, 2024) can be followed below.

For assay [1], the species on record is Homo sapiens. Description: Selectivity ratio of IC50 for human CA I to IC50 for human CA II.
For assay [2], the species on record is Homo sapiens. Description: Selectivity ratio of IC50 for human CA IX to IC50 for human CA II.

As to `COc1ccc(C2C(C#N)=C(N)Oc3c2c(C)nn3-c2ccc(S(N)(=O)=O)cc2)cc1O` (centres undefined), the values for the Ratio IC50 in the assay filed under Homo sapiens [1] and in the assay filed under Homo sapiens [2] were 10.6 and 3.33, respectively.

For the compound `Cc1nn(-c2ccc(S(N)(=O)=O)cc2)c2c1C(c1ccc(F)cc1F)C(C#N)=C(N)O2` (centres undefined), the Ratio IC50 in the assay listed under Homo sapiens [1] is 4.68; in the assay listed under Homo sapiens [2], 4.52.
